Data: US20230109218A1 (BIOATLA, published 2023)

Target: T1, recombinant human HER2 antigen (human, UniProt P04626, in part)
T1 construct: also called human HER2 protein
Assay: pH range ELISA on coated recombinant human HER2, antibody 100 ng/mL, pH 5.0-7.4; pH of 50% binding (binding at pH 6.0 = 100%)

| Binder | pH inflection point [pH] |
| --- | --- |
| LC A032D/HC Y052K conditionally active anti-HER2 antibody (antibody, V domains shown, also called BA-130-03-02) VH: [about 120 residues with changes not printed] VL: DIQMTQSPSSLSASVGDRVTITCRASQDVNTDVAWYQQKPGKAPKLLIYSASFLYSGVPSRFSGSRSGTDFTLTISSLQPEDFATYYCQQHYTTPPTFGQGTKVEIK | 6.22 |
| LC A032D/HC S119E conditionally active anti-HER2 antibody (antibody, V domains shown, also called BA-130-03-08) VH: [about 120 residues with changes not printed] VL: DIQMTQSPSSLSASVGDRVTITCRASQDVNTDVAWYQQKPGKAPKLLIYSASFLYSGVPSRFSGSRSGTDFTLTISSLQPEDFATYYCQQHYTTPPTFGQGTKVEIK | 6.22 |
| LC A032D/HC T058D conditionally active anti-HER2 antibody (antibody, V domains shown, also called BA-130-03-06) VH: [about 120 residues with changes not printed] VL: DIQMTQSPSSLSASVGDRVTITCRASQDVNTDVAWYQQKPGKAPKLLIYSASFLYSGVPSRFSGSRSGTDFTLTISSLQPEDFATYYCQQHYTTPPTFGQGTKVEIK | 5.45 |
| LC-A032D / HC-N028W conditionally active anti-HER2 antibody (antibody, V domains shown) VH: [about 120 residues with changes not printed] VL: DIQMTQSPSSLSASVGDRVTITCRASQDVNTDVAWYQQKPGKAPKLLIYSASFLYSGVPSRFSGSRSGTDFTLTISSLQPEDFATYYCQQHYTTPPTFGQGTKVEIK | 6.05 |
| LC A032D/HC G056K conditionally active anti-HER2 antibody (antibody, V domains shown, also called BA-130-03-05) VH: [about 120 residues with changes not printed] VL: DIQMTQSPSSLSASVGDRVTITCRASQDVNTDVAWYQQKPGKAPKLLIYSASFLYSGVPSRFSGSRSGTDFTLTISSLQPEDFATYYCQQHYTTPPTFGQGTKVEIK | 6.23 |
| LC-A032D / HC-N055A conditionally active anti-HER2 antibody (antibody, V domains shown) VH: [about 120 residues with changes not printed] VL: DIQMTQSPSSLSASVGDRVTITCRASQDVNTDVAWYQQKPGKAPKLLIYSASFLYSGVPSRFSGSRSGTDFTLTISSLQPEDFATYYCQQHYTTPPTFGQGTKVEIK | 6.3 |
| LC-A032D / HC-Y052O conditionally active anti-HER2 antibody (antibody, V domains shown) VH: [about 120 residues with changes not printed] VL: DIQMTQSPSSLSASVGDRVTITCRASQDVNTDVAWYQQKPGKAPKLLIYSASFLYSGVPSRFSGSRSGTDFTLTISSLQPEDFATYYCQQHYTTPPTFGQGTKVEIK | 6.13 |
